Source: US20050090505A1, “Methods of reducing risk of infection from pathogens” (priority 2003, published 2005)

Chains of the proteins cited; added tags and fusions are not shown. Residues count along the entry.
UniProt A0A8I3MKE6, 1-646: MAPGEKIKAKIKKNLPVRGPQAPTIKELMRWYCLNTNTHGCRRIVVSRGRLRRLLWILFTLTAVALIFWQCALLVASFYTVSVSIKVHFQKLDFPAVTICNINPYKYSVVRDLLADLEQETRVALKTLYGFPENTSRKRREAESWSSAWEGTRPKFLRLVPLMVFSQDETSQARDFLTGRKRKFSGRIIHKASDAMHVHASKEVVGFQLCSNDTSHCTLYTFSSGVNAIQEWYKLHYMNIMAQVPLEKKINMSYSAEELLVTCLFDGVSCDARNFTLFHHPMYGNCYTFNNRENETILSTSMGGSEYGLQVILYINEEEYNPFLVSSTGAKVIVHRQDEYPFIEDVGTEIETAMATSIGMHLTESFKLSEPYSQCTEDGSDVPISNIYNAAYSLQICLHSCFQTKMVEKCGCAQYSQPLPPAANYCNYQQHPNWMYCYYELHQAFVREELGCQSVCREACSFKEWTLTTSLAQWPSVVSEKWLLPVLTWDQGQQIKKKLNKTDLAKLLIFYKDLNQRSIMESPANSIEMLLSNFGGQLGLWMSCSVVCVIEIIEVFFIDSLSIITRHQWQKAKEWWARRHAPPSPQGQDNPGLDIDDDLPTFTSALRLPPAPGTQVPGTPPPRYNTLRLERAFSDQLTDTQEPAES
UniProt A0A8I3Q679, 1-649: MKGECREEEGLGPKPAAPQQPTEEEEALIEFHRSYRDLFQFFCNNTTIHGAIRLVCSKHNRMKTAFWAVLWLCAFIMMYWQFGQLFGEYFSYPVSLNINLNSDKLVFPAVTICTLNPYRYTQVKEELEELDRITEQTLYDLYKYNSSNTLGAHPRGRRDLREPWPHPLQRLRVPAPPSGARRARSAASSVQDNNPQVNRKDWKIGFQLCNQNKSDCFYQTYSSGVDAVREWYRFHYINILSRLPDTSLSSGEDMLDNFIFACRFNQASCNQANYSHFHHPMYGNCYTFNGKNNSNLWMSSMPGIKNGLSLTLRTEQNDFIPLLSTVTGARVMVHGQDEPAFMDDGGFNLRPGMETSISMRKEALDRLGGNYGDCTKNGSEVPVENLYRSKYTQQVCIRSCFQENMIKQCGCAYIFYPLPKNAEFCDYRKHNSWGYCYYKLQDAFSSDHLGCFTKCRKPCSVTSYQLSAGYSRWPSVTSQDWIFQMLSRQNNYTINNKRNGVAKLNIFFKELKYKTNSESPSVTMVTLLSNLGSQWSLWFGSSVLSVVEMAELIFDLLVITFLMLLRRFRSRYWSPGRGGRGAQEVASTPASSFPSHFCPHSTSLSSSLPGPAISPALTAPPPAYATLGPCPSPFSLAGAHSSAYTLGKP
UniProt Q95165, whole entry: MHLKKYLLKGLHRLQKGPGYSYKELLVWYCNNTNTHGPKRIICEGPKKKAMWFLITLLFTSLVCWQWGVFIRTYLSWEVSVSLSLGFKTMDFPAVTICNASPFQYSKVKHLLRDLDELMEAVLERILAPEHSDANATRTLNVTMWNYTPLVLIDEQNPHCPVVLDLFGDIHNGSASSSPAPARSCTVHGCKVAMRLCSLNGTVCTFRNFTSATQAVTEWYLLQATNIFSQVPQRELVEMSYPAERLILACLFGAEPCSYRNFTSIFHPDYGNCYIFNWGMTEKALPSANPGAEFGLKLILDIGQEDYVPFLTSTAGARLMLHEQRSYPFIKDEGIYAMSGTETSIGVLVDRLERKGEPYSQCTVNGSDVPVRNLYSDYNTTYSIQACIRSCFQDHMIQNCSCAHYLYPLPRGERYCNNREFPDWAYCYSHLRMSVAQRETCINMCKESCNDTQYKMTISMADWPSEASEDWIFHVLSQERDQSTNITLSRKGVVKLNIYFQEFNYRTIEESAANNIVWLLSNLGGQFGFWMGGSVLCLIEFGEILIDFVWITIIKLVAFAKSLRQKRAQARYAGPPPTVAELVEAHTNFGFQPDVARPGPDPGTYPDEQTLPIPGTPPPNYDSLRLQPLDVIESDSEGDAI

Target: airway epithelial sodium currents (sodium channel) (UniProt A0A8I3MKE6+A0A8I3Q679+Q95165)
Test: Sodium channel blocking activity: inhibition of short circuit current (ISC) in airway epithelial monolayers mounted in Ussing chambers
Details: Capped Pyrazinoylguanidines, relative potency for PSA 4022 = 100 using EC50 from PSA 4022 in same run
Method: In Vitro Measure of Sodium Channel Blocking Activity and Reversibility
One assay used to assess mechanism of action and/or potency of the compounds of the present invention involves the determination of lumenal drug inhibition of airway epithelial sodium currents measured under short circuit current (ISC) using airway epithelial monolayers mounted in Ussing chambers. Cells obtained from freshly excised human, dog, sheep or rodent airways are seeded onto porous 0.4 micron Snapwell™ Inserts (CoStar), cultured at air-liquid interface (ALI) conditions in hormonally defined media, and assayed for sodium transport activity (ISC) while bathed in Krebs Bicarbonate Ringer (KBR) in Using chambers. All test drug additions are to the lumenal bath with half-log dose addition protocols (from 1×10^−11 M to 3×10^−5 M), and the cumulative change in ISC (inhibition) recorded. All drugs are prepared in dimethyl sulfoxide as stock solutions at a concentration of 1×10^−2 M and stored at −20° C. Eight preparations are typically run in parallel; two preparations per run incorporate amiloride and/or benzamil as positive controls. After the maximal concentration (5×10^−5 M) is administered, the lumenal bath is exchanged three times with fresh drug-free KBR solution, and the resultant ISC measured after each wash for approximately 5 minutes in duration. Reversibility is defined as the percent return to the baseline value for sodium current after the third wash. All data from the voltage clamps are collected via a computer interface and analyzed off-line.
Dose-effect relationships for all compounds are considered and analyzed by the Prism 3.0 program. IC50 values, maximal effective concentrations, and reversibility are calculated and compared to amiloride and benzamil as positive controls.

SMILES | Fold Amiloride** (PSA 4022 = 100) | Fold Amiloride** (PSA 4022 = 100) (tested form: 2HCl) | further results
CN(C)S(=O)(=O)CCCOc1ccc(CCCCNC(=N)NC(=O)c2nc(Cl)c(N)nc2N)cc1 | – | – | Fold Amiloride** (PSA 4022 = 100) (tested form: HCl): 83 ± 26
COc1ccc(CN2C(=O)OC(CCCOc3ccc(CCCCNC(=N)NC(=O)c4nc(Cl)c(N)nc4N)cc3)C2=O)cc1 (stereo not shown) | – | – | Fold Amiloride** (PSA 4022 = 100) (tested form: HCl): 32 ± 16
N=C(NCCCCc1ccc(NC(=O)CCC(N)=O)cc1)NC(=O)c1nc(Cl)c(N)nc1N | 49 ± 15 | – | –
CN(C)C(=O)Sc1ccc(CCCCNC(=N)NC(=O)c2nc(Cl)c(N)nc2N)cc1 | 112 ± 52 | – | –
N=C(NCCCCc1ccc(OCCCn2ccnc2)cc1)NC(=O)c1nc(Cl)c(N)nc1N | 42 ± 17 | – | –
N=C(NCCCCc1ccc(C[C@@H](N)CC(N)=O)cc1)NC(=O)c1nc(Cl)c(N)nc1N | – | 107 ± 38 | –
N=C(NCCCCc1ccc(S(N)(=O)=O)cc1)NC(=O)c1nc(Cl)c(N)nc1N | 76 ± 25 | – | –
N=C(NCCCCc1ccc(OCCC2N=C(N)NC2=O)cc1)NC(=O)c1nc(Cl)c(N)nc1N (stereo not shown) | – | 136 ± 58 | –
N=C(NCCCCc1ccc(OC2CN[C@H](C(N)=O)C2)cc1)NC(=O)c1nc(Cl)c(N)nc1N (stereo partly shown) | – | 32 ± 10 | –
N=C(NCCCCc1ccc(NC(=O)CCC(=O)O)cc1)NC(=O)c1nc(Cl)c(N)nc1N | 13 ± 4 | – | –
